Experiment [1] concerns fungal library strains (EMS-Library, Control-Library). The experiment is described as follows: Growth of fungal library strains at different inoculation quantities (OD600). The conditions noted are these: for OD600 measurement: rep 1 and rep 2, three days, 30 °C.
Experiment [2] has as its system HSC82. The experiment is described as follows: Sequencing for HSC82 mutations after growth in radicicol. Conditions: EMS-Library.
In experiment [3] the test system is HSC82 or HPC82. The experiment is described as follows: Sequencing for HSC82 or HPC82 mutations after growth in radicicol. Conditions: Control-Library.
In experiment [4] the test system is HSP82. The experiment is described as follows: Sequencing for HSP82 mutations after growth in radicicol. Conditions: EMS-Library.
Experiment [5] has as its system FKS1. The experiment is described as follows: Nanopore sequencing of FKS1 gene in msh2Δ+caspofungin wells. The conditions noted are these: 250 nM caspofungin.
Experiment [6] deals with FKS1. The experiment is described as follows: Sequence assessment of FKS1 gene in EMS-Library after growth in caspofungin. Conditions: at least 250 nM caspofungin, eight samples.
Experiment [7] has as its system msh2Δ fungal strain. The experiment is described as follows: Growth of msh2Δ fungal strain at different sample volumes (OD600). Conditions: 250 nM caspofungin.
In experiment [8] the test system is EMS-Library (mutagenized fungal library). Description: Fungal resistance screening in liquid media, EMS-Library (OD600). Conditions: up to 1000 nM caspofungin, 72 hours, 30 °C, 100 μl.
Experiment [9] relates to FKS1. Description: Sequencing for FKS1 mutations after growth in caspofungin, inoculation quantity test. The conditions noted are these: for samples with FKS1 mutations: Control-Library, abundance threshold 10%.
The subject of experiment [10] is Control strain. Description: Growth of control strain at different sample volumes (OD600). The conditions noted are these: 250 nM caspofungin, 30 °C, three days, replicates 1-6.
Experiment [11] relates to ALG7. Conditions: cited from earlier work.
Experiment [12] has as its system ALG7. The experiment is described as follows: Gene identification screen, yeast heterozygous diploid knockout library.
Experiment [13] relates to ALG7. Description: Gene identification screen, molecular barcoded yeast overexpression library.
Experiment [14] concerns ERG25. Description: Chemical genetics screen, mutagenized fungal library (interaction z-score, ERG25). Conditions: FIG. 3B, FIG. 4.
The test system of experiment [15] is LCB2. Conditions: cited from earlier work.
Where [16] appears, read: 0.016 μM compound, inoculation 2M cells.
Where [17] appears, read: 0.016 μM compound, inoculation 5M cells.
The mark [18] stands for this setting: 0.08 μM compound, inoculation 2M cells.
The mark [19] stands for this setting: 0.08 μM compound, inoculation 5M cells.
Setting [20] is: 0.4 μM compound, inoculation 2M cells.
Setting [21] is: 0.4 μM compound, inoculation 5M cells.
Where [22] appears, read: 2 μM compound, inoculation 2M cells.
Setting [23] is: 2 μM compound, inoculation 5M cells.
[24] abbreviates: 10 μM compound, inoculation 2M cells.
[25] abbreviates: 10 μM compound, inoculation 5M cells.

Values joined by “and” are separate entries in the source; they are usually repeats but may differ in a detail not shown here. Equal values may be shown once.

`C[C@@H]1C[C@H]2O[C@@H]2/C=C\C=C\C(=O)Cc2c(Cl)c(O)cc(O)c2C(=O)O1`: the OD600 measurement in experiment [1] (setting [16]) is 0.57 and 0.66; in [1] (setting [17]), 0.76 and 0.53; in experiment [1] (setting [18]) it was 0.58; in experiment [1] (setting [19]), 0.87 and 0.60; in [1] (setting [20]) it was 0.67 and 0.64; in experiment [1] (setting [21]), 0.80 and 0.61. Moreover, the OD600 measurement in experiment [1] (setting [22]) is 0.68 and 0.64; in experiment [1] (setting [23]), 0.89 and 0.78; in experiment [1] (setting [24]) it was 0.75 and 0.65; in [1] (setting [25]), 0.84 and 0.65. For the same compound, the “frequency of HSC82 mutation (XIII 634144)” value in experiment [2] (2 million cells) came out at 12.5%. Also, the “samples with an HSC82 mutation (XIII 634144)” value in experiment [2] (2 million cells) is listed as 1/1. The “number of distinct HSC82 missense mutations” value in [2] (5 million cells, 10% threshold) is “seven”. Moreover, the “samples with HSC82 missense mutations” value in [2] (5 million cells, 10% threshold) is given as 1/1. Moreover, the “samples with HSC82 or HPC82 mutations” value in [3] (2 million cells) is reported as 0/6. In addition, in experiment [3] (5 million cells), the “samples with mutations in HSC82 or HPC82” value was 0/6. Moreover, the “samples with HSP82 mutations” value in experiment [4] (2 million cells) and in experiment [4] (5 million cells) was 0/1 throughout.
Consider `CC[C@H](C)C[C@H](C)CCCCCCCCC(=O)N[C@H]1C[C@@H](O)[C@@H](NCCN)NC(=O)[C@@H]2[C@@H](O)CCN2C(=O)[C@H]([C@H](O)CCN)NC(=O)[C@H]([C@H](O)[C@@H](O)c2ccc(O)cc2)NC(=O)[C@@H]2C[C@@H](O)CN2C(=O)[C@H]([C@@H](C)O)NC1=O`, for which the OD600 measurement was 0.91 and 0.94 in experiment [1] (0.016 μM compound, inoculation 5M cells, listed as Caspofungin); 0.05 and 0.07 in experiment [1] (0.4 μM compound, inoculation 2M cells, listed as Caspofungin); 0.09 and 0.11 in experiment [1] (0.4 μM compound, inoculation 5M cells, listed as Caspofungin); 0.06 and 0.08 in [1] (2 μM compound, inoculation 2M cells, listed as Caspofungin); 0.05 and 0.07 in experiment [1] (10 μM compound, inoculation 2M cells, listed as Caspofungin); 0.08 and 0.12 in experiment [1] (10 μM compound, inoculation 5M cells, listed as Caspofungin). Further, the OD600 measurement in experiment [1] (50 μM compound, inoculation 2M cells, listed as Caspofungin) was 0.06 and 0.07; in [1] (50 μM compound, inoculation 5M cells, listed as Caspofungin) it was 0.10 and 0.12; in [1] (250 μM compound, inoculation 2M cells, listed as Caspofungin), 0.05 and 0.07; in experiment [1] (250 μM compound, inoculation 5M cells, listed as Caspofungin) it was 0.09 and 0.12; in experiment [10] (150 μl) it was 0.11 and 0.09 (3×) and 0.10 (2×); in [10] (300 μl) it was 0.08 (4×) and 0.09 (2×). Further, the OD600 measurement in experiment [10] (600 μl) was 0.08 (3×) and 0.09 (3×); in [10] (900 μl) it was 0.08 (4×) and 0.09 (2×). Further, the “samples with a mutation in the FKS1 gene at over 20% abundance” value in [5] is listed as 23/24. Besides, the “samples with mutations in the FKS1 gene” value in experiment [6] is on record as “all revealed mutations in the FKS1 gene”. In addition, the “resistance of the msh2Δ strain” value in [7] (all volume conditions) was “resistant to caspofungin”. Further, the “OD600 readings, all 36 wells” value in [7] (msh2Δ, 150-900 μl) is given as “above 0.85”. In addition, the “growth of EMS-Library” value in experiment [8] is reported as “able to grow in all concentrations of caspofungin”. The “samples with FKS1 mutations” value in experiment [9] (2 million cells) and in experiment [9] (5 million cells) was 0/6 each time. Further, the “frequency of XII 814065 missense mutation in FKS1” value in experiment [9] (EMS-Library, 2 million cells) stood at 98%. Besides, the “samples that passed sequencing with missense mutation in FKS1 (XII 814065)” value in [9] (EMS-Library, 2 million cells) is reported as 1/1. In addition, the “frequency of two alleles containing missense mutations in FKS1 (XII 811888 and XII 811924)” value in [9] (EMS-Library, 5 million cells) is on record as 50%. Moreover, in experiment [9] (EMS-Library, 5 million cells), the “samples that passed sequencing with two alleles containing missense mutations in FKS1 (XII 811888 and XII 811924)” value is reported as 1/1.
Turning to tunicamycin, the “known target (ALG7)” value in experiment [11] is “known target of tunicamycin”. Besides, the “strain vs. IQR score, outliers (one is ALG7)” value in [12] is given as “Two extreme outliers were identified”. In addition, the “strain vs. IQR score, outliers including ALG7” value in experiment [13] is “Multiple extreme outliers were identified”.
Regarding `CC(=C\C(=O)O)/C=C(\C)C[C@H](C)CCCC[C@H]1OC(=O)[C@@H]1CO`, the OD600 measurement is 0.92 and 1.09 in experiment [1] (setting [16]); 0.58 and 0.99 in [1] (setting [17]); 0.90 and 1.02 in experiment [1] (setting [18]); 0.66 and 0.91 in experiment [1] (setting [19]); 0.84 and 0.97 in experiment [1] (setting [20]); 0.48 and 0.91 in experiment [1] (setting [21]). In addition, the OD600 measurement in experiment [1] (setting [22]) was 0.75 and 0.85; in [1] (setting [23]) it was 0.51 and 0.81; in [1] (setting [24]), 0.82 and 0.54; in experiment [1] (setting [25]), 0.53 and 0.59; in experiment [1] (50 μM compound, inoculation 2M cells), 0.79 and 0.76; in experiment [1] (50 μM compound, inoculation 5M cells), 0.58 and 0.54. Further, the OD600 measurement in experiment [1] (250 μM compound, inoculation 2M cells) was 0.07 and 0.11. Also, the “difference in OD600 measurements between EMS-Library and Control-Library samples” value in [1] (all concentrations tested) is listed as “not significant”.
For the compound `CCC[C@H](O)C[C@@H]1CC[C@H](C)CCCCC(=O)N(C)[C@@H](Cc2ccc(OCCO)cc2)C(=O)O1`, the ERG25-detected bioactivity entry in experiment [14] was “ERG25-detected bioactivity”.
For the compound `CC(C)CCCC(=O)CCCCCCC(=O)CCN(O)C(=O)[C@@H](N)CO`, in experiment [15], the “known target (LCB2)” value is reported as “known target of lipoxamycin”.

(Values after US20260385963A1, “METHODS FOR IDENTIFICATION OF COMPOUND INTERACTION PARTNERS AND COMPOUNDS PRODUCED BY GENE CLUSTERS” (published 2026).)
